Experimental data: article PMC6568389 (PLoS ONE, 2019)

How the values were obtained:
[1] = target: T1, tumor necrosis factor (TNF) (UniProt P01375); test: ELISA; TNF coated in ELISA wells; bIFX pre-incubated at the indicated temperatures in solution; conditions: both partners purified
T1 construct: tumor necrosis factor; also called trimeric TNF

[2] = target: T1, tumor necrosis factor (TNF); test: bead-based fluorescent sandwich/bridging immunoassay; IFX incubated first at 37-57 °C (up to 67 °C) and then covalently immobilised on fluorescent beads; TNF as bridge; native bIFX in solution; detection with PE-streptavidin; conditions: both partners purified

Binder | binding result [1] | binding result [2]
biotinylated Infliximab (antibody, V domains shown, as the heavy chain of m6: heavy chain of infliximab up to the constant part; as the light chain of m6: light chain of infliximab; IgG1; biotin-labelled form of m6; Used native or pre-incubated at the indicated temperatures; also called bIFX; biotin-labelled IFX; source: therapeutic monoclonal antibody; biotinylated; copies: 2 + 2) VH: EVKLEESGGGLVQPGGSMKLSCVASGFIFSNHWMNWVRQSPEKGLEWVAEIRSKSINSATHYAESVKGRFTISRDDSKSAVYLQMTDLRTEDTGVYYCSRNYYGSTYDYWGQGTTLTVSS VL: DILLTQSPAILSVSPGERVSFSCRASQFVGSSIHWYQQRTNGSPRLLIKYASESMSGIPSRFSGSGSGTDFTLSINTVESEDIADYYCQQSHSWPFTFGSGTNLEVK | binds | –
Infliximab, monoclonal therapeutic IgG directed to tumor necrosis factor (TNF) (antibody, V domains shown, heavy chain of infliximab up to the constant part; light chain of infliximab; IgG1; Used native or pre-incubated at 37-67 °C; also called IFX; source: therapeutic monoclonal antibody; copies: 2 + 2) VH: EVKLEESGGGLVQPGGSMKLSCVASGFIFSNHWMNWVRQSPEKGLEWVAEIRSKSINSATHYAESVKGRFTISRDDSKSAVYLQMTDLRTEDTGVYYCSRNYYGSTYDYWGQGTTLTVSS VL: DILLTQSPAILSVSPGERVSFSCRASQFVGSSIHWYQQRTNGSPRLLIKYASESMSGIPSRFSGSGSGTDFTLSINTVESEDIADYYCQQSHSWPFTFGSGTNLEVK | – | binds
